{"sequences": {"note": "The chains behind the UniProt entries cited, without tags or fusion partners. Residues count along the entry.", "UniProt P97612, 30-579": "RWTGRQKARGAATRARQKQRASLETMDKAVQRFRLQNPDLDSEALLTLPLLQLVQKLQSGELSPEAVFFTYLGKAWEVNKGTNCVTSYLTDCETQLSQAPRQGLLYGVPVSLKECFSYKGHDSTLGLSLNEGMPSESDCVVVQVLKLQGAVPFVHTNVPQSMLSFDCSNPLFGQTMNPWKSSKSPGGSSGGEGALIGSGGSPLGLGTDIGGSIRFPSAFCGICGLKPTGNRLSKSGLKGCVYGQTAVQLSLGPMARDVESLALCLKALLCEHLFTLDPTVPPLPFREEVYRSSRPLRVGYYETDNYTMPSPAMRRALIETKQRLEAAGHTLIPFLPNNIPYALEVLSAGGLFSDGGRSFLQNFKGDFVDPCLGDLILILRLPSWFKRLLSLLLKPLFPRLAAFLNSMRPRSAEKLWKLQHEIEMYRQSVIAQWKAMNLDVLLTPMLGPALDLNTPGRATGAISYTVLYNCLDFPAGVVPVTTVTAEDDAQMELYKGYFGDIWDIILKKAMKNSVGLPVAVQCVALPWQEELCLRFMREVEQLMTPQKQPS"}, "source": "patent US9682953B2", "about": "“Amide compounds, compositions and applications thereof” (Advinus Therapeutics Limited, priority 2011, dated 2017)", "target": "rat Fatty Acid Amide Hydrolase (FAAH) (Rattus norvegicus (Rat), UniProt P97612)", "assay": "FAAH in vitro fluorescence assay (AAMCA hydrolysis), rat enzyme", "type": "biochemical", "details": "read-out: rFAAH IC50", "experimental": "Material and Reagents: All reagents were purchased from Sigma-Aldrich unless specified. […] Chaperone protein groEL-groES in pGRO7 plasmid (Takara Bio Inc, Japan) was co-expressed with Fatty Acid Amide Hydrolase (FAAH) to improve solubility of the protein expressed in E coli. […]\nThe assay was carried out in 200 μL volume in a 96-well black polystyrene plate (Greiner Bio-one, Germany). […] The reaction was incubated with 2 μL of varying concentrations of inhibitor in DMSO (final concentration of DMSO 1%) with shaking for 1 min and monitored for increase in fluorescence in kinetic mode for 50 min. […] Data was analyzed using GraphPad Prism 5 (GraphPad Software Inc., San Diego, Calif.). The activity of the compounds for rat Fatty Acid Amide Hydrolase (FAAH) was evaluated as described above with rat Fatty Acid Amide Hydrolase (FAAH) protein and 10 μM AAMCA substrate.", "data": [{"smiles": "Cc1nc(C(=O)NC2CCC(=Cc3cccc(Oc4ccc(C(F)(F)F)cc4)c3)CC2)sc1-c1cccnc1", "note": "(stereo not shown) [Example 2.B-1, 4-Methyl-5-(3-pyridyl)-N-[4-[[3-[4-(trifluoromethyl)phenoxy]phenyl]methylene]cyclohexyl]thiazole-2-carboxamide]", "values": [{"measurement": "IC50", "value": 237, "unit": "nM"}]}]}
